Experimental data from article PMC3260246.

Sequences of proteins named here, by UniProt entry; tags and fusion partners are left off. A change or cut given only in a name is not applied to a line headed by its entry.
UniProt P02489, whole entry R12A: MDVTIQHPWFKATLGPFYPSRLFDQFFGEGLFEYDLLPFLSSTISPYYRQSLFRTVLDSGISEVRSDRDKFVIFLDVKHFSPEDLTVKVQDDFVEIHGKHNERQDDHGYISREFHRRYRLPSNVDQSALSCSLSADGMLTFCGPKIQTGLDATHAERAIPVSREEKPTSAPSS
UniProt P02526: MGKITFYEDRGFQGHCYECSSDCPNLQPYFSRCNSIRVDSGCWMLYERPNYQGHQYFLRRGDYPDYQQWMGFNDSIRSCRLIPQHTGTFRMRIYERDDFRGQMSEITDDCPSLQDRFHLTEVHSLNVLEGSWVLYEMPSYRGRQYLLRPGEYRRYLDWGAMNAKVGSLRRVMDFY

Columns and labels:
[1] = target: αA-crystallin R12A mutant (human) (UniProt P02489); assay: membrane filtration equilibrium binding (Scatchard plot); 12.5 µM wild-type or mutant small heat shock protein incubated 1 hr at 60°C with 2–18 µM γ-crystallin in 50 mM phosphate buffer, 100 mM NaCl, pH 7.2; unbound substrate separated through a 100-kDa cut off Microcon filter; n per subunit of chaperone
[2] = target: wild-type human αA-crystallin (human) (UniProt P02489); assay: as above
[3] = target: αA-crystallin R12A mutant (human) (UniProt P02489)

bovine γ-crystallin (from UniProt P02526 1-175) (natural protein)
Kd [1]: 8.07 µM | stoichiometry N [1]: 4.68 | Ka [2]: 118000 M⁻¹ | Kd [2]: 8.44 µM | increase in the chaperone function compared to the Wt protein, γ-crystallin as client protein (thermal aggregation assay) [3]: 15%
